These results are taken from IntAct's records for PubMed 22198837.

B1: FACT complex subunit POB3 (Saccharomyces cerevisiae), Q04636 (parent)
chain: MSTDFDRIYLNQSKFSGRFRIADSGLGWKISTSGGSAANQARKPFLLPATELSTVQWSRGCRGYDLKINTKNQGVIQLDGFSQDDYNLIKNDFHRRFNIQVEQREHSLRGWNWGKTDLARNEMVFALNGKPTFEIPYARINNTNLTSKNEVGIEFNIQDEEYQPAGDELVEMRFYIPGVIQTNVDENMTKKEESSNEVVPKKEDGAEGEDVQMAVEEKSMAEAFYEELKEKADIGEVAGDAIVSFQDVFFTTPRGRYDIDIYKNSIRLRGKTYEYKLQHRQIQRIVSLPKADDIHHLLVLAIEPPLRQGQTTYPFLVLQFQKDEETEVQLNLEDEDYEENYKDKLKKQYDAKTHIVLSHVLKGLTDRRVIVPGEYKSKYDQCAVSCSFKANEGYLYPLDNAFFFLTKPTLYIPFSDVSMVNISRAGQTSTSSRTFDLEVVLRSNRGSTTFANISKEEQQLLEQFLKSKNLRVKNEDREVQERLQTALGSDSDEEDINMGSAGEDDESVDEDFQVSSDNDADEVAEEFDSDAALSDAEGGSDEERPSKKPKVE

This experiment covers variants of B1. Particulars: with h3_yeast HHT1.
Regarding MSTDFDRIYLNQSKFSGRFRIADSGLGWKISTSGGSAANQARKPFLLPATELSTVQWSRGCRGYDLKINTKNQGVIQLDGFSQDDYNLIKNDFHRRFNIQVEQREHSLRGWNWGKTDLARNEMVFALNGKPTFEIPYARINNTNLTSKNEVGIEFNIQDEEYQPAGDELVEMRFYIPGVIQTNVDENMTKKEESSNEVVPKKEDGAEGEDVQMAVEEKSMAEAFYEELKEKADIGEVAGDAIVSFQDVFFETPRGRYDIDIYKNSIRLRGKTYEYKLQHRQIQRIVSLPKADDIHHLLVLAIEPPLRQGQTTYPFLVLQFQKDEETEVQLNLEDEDYEENYKDKLKKQYDAKTHIVLSHVLKGLTDRRVIVPGEYKSKYDQCAVSCSFKANEGYLYPLDNAFFFLTKPTLYIPFSDVSMVNISRAGQTSTSSRTFDLEVVLRSNRGSTTFANISKEEQQLLEQFLKSKNLRVKNEDREVQERLQTALGSDSDEEDINMGSAGEDDESVDEDFQVSSDNDADEVAEEFDSDAALSDAEGGSDEERPSKKPKVE [T251E], the “effect of a mutation on the interaction” value was “disrupting interaction strength”.
The entry for MSTDFDRIYLNQSKFSGRFRIADSGLGWKISTSGGSAANQARKPFLLPATELSTVQWSRGCRGYDLKINTKNQGVIQLDGFSQDDYNLIKNDFHRRFNIQVEQREHSLRGWNWGKTDLARNEMVFALNGKPTFEIPYARINNTNLTSKNEVGIEFNIQDEEYQPAGDELVEMRFYIPGVIQTNVDENMTKKEESSNEVVPKKEDGAEGEDVQMAVEEKSMAEAFYEELKEKADIGEVAGDAIVSFQDVFFTEPRGRYDIDIYKNSIRLRGKTYEYKLQHRQIQRIVSLPKADDIHHLLVLAIEPPLRQGQTTYPFLVLQFQKDEETEVQLNLEDEDYEENYKDKLKKQYDAKTHIVLSHVLKGLTDRRVIVPGEYKSKYDQCAVSCSFKANEGYLYPLDNAFFFLTKPTLYIPFSDVSMVNISRAGQTSTSSRTFDLEVVLRSNRGSTTFANISKEEQQLLEQFLKSKNLRVKNEDREVQERLQTALGSDSDEEDINMGSAGEDDESVDEDFQVSSDNDADEVAEEFDSDAALSDAEGGSDEERPSKKPKVE [T252E] is “disrupting interaction strength”; for MSTDFDRIYLNQSKFSGRFRIADSGLGWKISTSGGSAANQARKPFLLPATELSTVQWSRGCRGYDLKINTKNQGVIQLDGFSQDDYNLIKNDFHRRFNIQVEQREHSLRGWNWGKTDLARNEMVFALNGKPTFEIPYARINNTNLTSKNEVGIEFNIQDEEYQPAGDELVEMRFYIPGVIQTNVDENMTKKEESSNEVVPKKEDGAEGEDVQMAVEEKSMAEAFYEELKEKADIGEVAGDAIVSFQDVEFTTPRGRYDIDIYKNSIRLRGKTYEYKLQHRQIQRIVSLPKADDIHHLLVLAIEPPLRQGQTTYPFLVLQFQKDEETEVQLNLEDEDYEENYKDKLKKQYDAKTHIVLSHVLKGLTDRRVIVPGEYKSKYDQCAVSCSFKANEGYLYPLDNAFFFLTKPTLYIPFSDVSMVNISRAGQTSTSSRTFDLEVVLRSNRGSTTFANISKEEQQLLEQFLKSKNLRVKNEDREVQERLQTALGSDSDEEDINMGSAGEDDESVDEDFQVSSDNDADEVAEEFDSDAALSDAEGGSDEERPSKKPKVE [F249E] it is “disrupting interaction strength”.
To MSTDFDRIYLNQSKFSGRFRIADSGLGWKISTSGGSAANQARKPFLLPATELSTVQWSRGCRGYDLKINTKNQGVIQLDGFSQDDYNLIKNDFHRRFNIQVEQREHSLRGWNWGKTDLARNEMVFALNGKPTFEIPYARINNTNLTSKNEVGIEFNIQDEEYQPAGDELVEMRFYIPGVIQTNVDENMTKKEESSNEVVPKKEDGAEGEDVQMAVEEKSMAEAFYEELKEKADIGEVAGDAIVSFQDVFFTTPRGRYDIDIYKNSIRLRGKTYEYKLQHRQIQRIVSLPKADDIHHLLVLAIEPPLRKGQTTYPFLVLQFQKDEETEVQLNLEDEDYEENYKDKLKKQYDAKTHIVLSHVLKGLTDRRVIVPGEYKSKYDQCAVSCSFKANEGYLYPLDNAFFFLTKPTLYIPFSDVSMVNISRAGQTSTSSRTFDLEVVLRSNRGSTTFANISKEEQQLLEQFLKSKNLRVKNEDREVQERLQTALGSDSDEEDINMGSAGEDDESVDEDFQVSSDNDADEVAEEFDSDAALSDAEGGSDEERPSKKPKVE [Q308K] belongs “increasing interaction strength”.
